Measured values taken from PMC11827123 (Journal of medicinal chemistry, 2023).

Test system: MOLT4 cells
Assay: Quantitative MS degradation proteomics in MOLT4 cells
Conditions: 6 h treatment

## COc1cc(C2CCN(CC3CN(c4ccc5c(c4)C(=O)N(C4CCC(=O)NC4=O)C5=O)C3)CC2)c(C)cc1Nc1ncc(Cl)c(Nc2ccccc2S(=O)(=O)C(C)C)n1 (stereo not shown) [CPD-1224, 5-{3-[(4-{4-[(5-Chloro-4-{[2-(propane-2-sulfonyl)phenyl]amino}pyrimidin-2-yl)amino]-5-methoxy-2-methylphenyl}piperidin-1-yl)methyl]azetidin-1-yl}−2-(2,6-dioxopiperidin-3-yl)-2,3-dihydro-1H-isoindole-1,3-dione]
  proteins degraded to any significant extent: degraded only a small number of proteins
